Measured values published in article PMC8177754.

Test system: Nc1nc2c(ncn2[C@@H]2O[C@@H]3CO[P@](=O)(O)O[C@H]4[C@@H](O)[C@H](n5cnc6c(=O)[nH]c(N)nc65)O[C@@H]4CO[P@](=O)(O)O[C@H]3[C@H]2O)c(=O)[nH]1
Experiment: purified protein
Details: pH 8.0

“(Vibrio cholerae O1 biovar El Tor str. N16961)” was tested, and the Km was 18 ± 8.1 µM.
